The series in a line: Dynamic vapour sorption analysis (DVS): water sorption isotherms, hygroscopicity. The settings on record: 25 °C. It is filed as physicochemical.

As to palbociclib hydrogen bromide (1:1) salt, the “hygroscopicity (water sorption isotherms)” value is reported as “does not exhibit significant hygroscopicity”.
“palbociclib hydrogen bromide (1:2) dihydrate salt”: the “hygroscopicity (water sorption isotherms)” value was “exhibits significant hygroscopicity”.

The values are drawn from patent publication EP3368527B1, “PALBOCICLIB TOSYLATE” (Egis Gyógyszergyár Zrt., priority 2015, dated 2017).
